# Binding of CDR-mutated scFvs to a peptide of the spike HR2 region

From the AlphaSeq antibody data of Engelhart et al. 2022 (doi:10.1038/s41597-022-01779-4), copy in the FLAb collection.

Binding partner: SARS-CoV-2 spike HR2 peptide, sequence PDVDLGDISGINAS.

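The starting antibody came from a phage panning campaign against this peptide. Library AAYL52 holds single substitutions and randomly drawn double and triple substitutions in the CDRs. In AlphaSeq, yeast of one mating type display the scFv and yeast of the other type display the target. Mating (16 h, 30 °C) was followed by selection of diploids and sequencing of their barcodes. The ratio of observed to expected reads was calibrated, replicate by replicate, on BCL2-family standards whose Kd was known from biolayer interferometry. The assay was run in three technical replicates.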

Ab-95 is the parent antibody, in scFv form: VH, then three GGGGS repeats, then VL. The heavy chain is unchanged in all variants.
VH: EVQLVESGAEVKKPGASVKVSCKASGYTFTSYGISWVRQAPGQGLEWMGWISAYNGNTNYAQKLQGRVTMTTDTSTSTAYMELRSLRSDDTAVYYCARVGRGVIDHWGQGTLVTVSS
VL: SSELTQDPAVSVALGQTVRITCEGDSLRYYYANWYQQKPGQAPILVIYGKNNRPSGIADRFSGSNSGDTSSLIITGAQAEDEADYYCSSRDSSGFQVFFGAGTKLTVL

The parent's light chain CDRs are EGDSLRYYYAN, GKNNRPS, SSRDSSGFQVF; each variant's own CDRs replace them letter for letter. All variants listed here change Q96 of the VL, counted from its first residue. Values are log10 of the apparent Kd in nM; lower means stronger binding. The mean shown is taken over the replicates in which the pair was detected. "nd" means that the variant was in the library but no mating with the target was seen in any replicate; the authors take this as a sign of poor binding, and no number exists. As a blank, each scFv also met three strains without target: over library AAYL52, 28% of these pairings were detected, typically at 3.91 and seldom below 2.90.

Variant EGDSLRYYYAK, GKNNRPS, SSRGSSGFPVF showed 3.76 (1 of 3 replicates).
Variant EGDSLRYYYAN, GKNNRPE, SIRDSSGFFVF showed 2.97 (1 of 3 replicates).
Variant EGDSLRYYYHN, GKNNRPS, ESRDSSGFRVF showed 4.56 (2 of 3 replicates).
Variant EGDSLRYYYAN, GKNNIMS, SSRDSSGFGVF showed 3.81 (3 of 3 replicates).
Variant EGDSSRYYYAN, GKNNTPS, SSRDSSGFVVF showed 3.50 (1 of 3 replicates).
Variant EGDSLRYYYAN, NKNNRPS, SSRDSSGFYSF showed 2.95 (2 of 3 replicates).
Variant EGDSLRYYEAA, GKNNRPS, SSRDSSGFGVF showed 3.21 (3 of 3 replicates).
Variant EGDSLRYYKAN, GKNNRPS, SSRSSSGFSVF showed 2.15 (3 of 3 replicates).
Variant EGASLRYYYAN, GKNNRPS, CSRDSSGFPVF showed 3.88 (2 of 3 replicates).
Variant GGDSLLYYYAN, GKNNRPS, SSRDSSGFAVF showed 2.25 (3 of 3 replicates).
Variant EGDSLRYYYAN, GCNSRPS, SSRDSSGFLVF showed 4.35 (1 of 3 replicates).
Variant EGDSLRYYMAN, GKNFRPS, SSRDSSGFFVF showed 3.07 (3 of 3 replicates).
Variant EGDSLRVYYAN, GKNNRPS, SKRDSSGFEVF showed 3.86 (3 of 3 replicates).
Variant EGDSLRYYYHN, GKNNRPS, SRRDSSGFFVF showed 4.71 (2 of 3 replicates).
Variant EGDSLLYYYAN, GKNNRPS, SSRLSSGFWVF showed 4.58 (3 of 3 replicates).
Variant EGLSLRWYYAN, GKNNRPS, SSRDSSGFKVF showed 2.77 (3 of 3 replicates).
Variant EGDSLRYYYAN, GKNNPPS, SSRDSSGSGVF showed 2.84 (1 of 3 replicates).
Variant EGDSLRYYYSN, GKNNRPS, WSRDSSGFLVF showed 3.17 (3 of 3 replicates).
Variant EGDSLRYYYAN, GKNNRPS, GSRDSSGFRVD showed 3.59 (2 of 3 replicates).
Variant EGDYLRYYYAN, GKNNRPI, SSRDSSGFDVF showed 3.25 (3 of 3 replicates).
Variant EGDSLRYYYAN, GDNNRAS, SSRDSSGFRVF showed 1.86 (3 of 3 replicates).
Variant EGDGLRYYYAN, GKNNRPS, SSRDSSPFSVF showed 2.41 (3 of 3 replicates).
Variant EGDSLSYYYIN, GKNNRPS, SSRDSSGFFVF showed 3.33 (2 of 3 replicates).
Variant EGDSLRFYYAN, GKNNRPS, SWRDSSGFTVF showed 2.48 (3 of 3 replicates).
Variant EGDSLRYYYAN, RKNNRPS, HSRDSSGFAVF showed 4.20 (2 of 3 replicates).
Variant EGDSLRIYYAN, GKNNRPS, SSRDSSGFWDF showed nd (0 of 3 replicates).
Variant EGDSLDYYLAN, GKNNRPS, SSRDSSGFEVF showed 3.01 (3 of 3 replicates).
Variant EGDSLRYYYAN, GENNRPS, RSRDSSGFYVF showed nd (0 of 3 replicates).
Variant EGDSLRYYYEN, GKNNRPS, SSRCSSGFAVF showed 5.66 (1 of 3 replicates).
Variant EQDSLRYYYAN, GKNNRPP, SSRDSSGFWVF showed nd (0 of 3 replicates).
Variant EGDSLRYYYAN, GKNNRPS, IDRDSSGFPVF showed 2.62 (3 of 3 replicates).
Variant EGDSLRHYYCN, GKNNRPS, SSRDSSGFLVF showed 3.03 (2 of 3 replicates).